Measurements from patent publication US20070154954A1 (TRANSTECH PHARMA, published 2007).

Target: T1, fluorescent amyloid beta (1-40) peptide (human, fluorescein label; attachment site of the purchased peptide (Biosource) not stated in the examples; one embodiment describes N-terminal 5-carboxy-fluorescein)
T1 construct: Bought from Biosource; It may be preincubated 24-48 h at 37 C to form a pleated sheet (aggregated) structure before the assay; also called fluorescienated amyloid beta 1-40; fluoresceinated amyloid beta (1-40)
Assay: fluorescence polarization, sRAGE at 40 nM

B1: recombinant human sRAGE (receptor)
chain: AQNITARIGEPLVLKCKGAPKKPPQRLEWKLNTGRTEAWKVLSPQGGGPWDSVARVLPNGSLFLPAVGIQDEGIFRCQAMNRNGKETKSNYRVRVYQIPGKPEIVDSASELTAGVPNKVGTCVSEGSYPAGTLSWHLDGKPLVPNEKGVSVKEQTRRHPETGLFTLQSELMVTPARGGDPRPTFSCSFSPGLPRHRALRTAPIQPRVWEPVPLEEVQLVVEPEGGAVAPGGTVTLTCEVPAQPSPQIHWMKDGVPLPLPPSPVLILPEIGPQDQGTYSCVATHSSHGPQESRAVSISIIEPGEEGPTAGSVGGSGLG
notes: also called soluble RAGE
  binding result: binds
